Laboratory results from PMC3913610, “Antitumor Activity and Induction of TP53-Dependent Apoptosis toward Ovarian Clear Cell Adenocarcinoma by the Dual PI3K/mTOR Inhibitor DS-7423” (PLoS ONE, 2014).

Test system: phosphorylation of AKT, S6, FOXO1/3a in OCCA cells
Experiment: Immunoblotting of PI3K/mTOR signaling in OCCA cells
Type: cell-based
Conditions: OVISE
Description: Signals were detected using BioRAD western blotting systems (BioRAD, Hercules, CA) with the detection reagents ECL advance and ECL select (GE Healthcare, Piscataway, NJ).

Structure (SMILES): CO[C@H]1C[C@@H]2CC[C@@H](C)[C@@](O)(O2)C(=O)C(=O)N2CCCC[C@H]2C(=O)O[C@H]([C@H](C)C[C@@H]2CC[C@@H](O)[C@H](OC)C2)CC(=O)[C@H](C)/C=C(\C)[C@@H](O)[C@@H](OC)C(=O)[C@H](C)C[C@H](C)/C=C/C=C/C=C/1C [rapamycin]
- dose suppressing p-S6: ≥ 2.45 nM
